Species on record: Cavia porcellus
Experiment: Potency to inhibit electrically induced contraction of guinea pig ileum(GPI) relative to [Leu5]-enkephalin.
Format: functional

CN1CC[C@]23c4c5ccc(O)c4O[C@H]2[C@@H](O)C=C[C@H]3[C@H]1C5 [MORPHINE]
Relative potency: 4.2

From ChEMBL document CHEMBL1126282, “Synthesis and conformational properties of the lanthionine-bridged opioid peptide [D-AlaL2,AlaL5]enkephalin as determined by NMR and computer simulations” (J Med Chem, 1992)
